We go through one molecule from US8957093B2, “N-biphenylmethylindole modulators of PPARG” (The Scripps Research Institute, priority 2011, dated 2015).

Protein sequences, listed by entry. Tags and fused reporters are not part of them. Residues count along the entry.
UniProt P37231, 238-503: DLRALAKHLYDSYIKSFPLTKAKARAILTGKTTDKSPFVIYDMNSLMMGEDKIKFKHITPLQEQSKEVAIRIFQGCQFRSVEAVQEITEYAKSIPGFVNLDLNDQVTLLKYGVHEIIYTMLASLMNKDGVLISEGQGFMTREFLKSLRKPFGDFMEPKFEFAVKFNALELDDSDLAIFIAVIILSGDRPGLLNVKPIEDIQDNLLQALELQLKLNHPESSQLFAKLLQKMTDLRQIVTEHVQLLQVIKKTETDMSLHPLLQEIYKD

For the assay, the target named is Gal-4-PPAR (human PPAR LBD fused to GAL4 DNA-binding domain) (Homo sapiens (Human), UniProt P37231). The assay is described as follows: GAL4-PPARG LBD / UAS-luciferase transactivation assay in HEK 293T cells. The assay is classed as cell-based.

On to `CN(CCOc1ccc(CC2SC(=O)NC2=O)cc1)c1ccccn1` (stereo not shown) [rosiglitazone, reference compound], for which the “activation of the GAL4 UAS reporter” value is recorded as “about 100 fold”.
